Earlier results, collected in paper PMC3286593 (Cancer Chemotherapy and Pharmacology, 2011).

System: VEGF receptors (VEGFRs 1–3), platelet-derived growth factor receptors (PDGFRs α and β)
Conditions: cited from earlier work

SMILES: CCN(CC)CCNC(=O)c1c(C)[nH]c(/C=C2\C(=O)Nc3ccc(F)cc32)c1C [sunitinib]
- Potency inhibiting VEGFRs 1–3, PDGFRs α and β: nanomolar range
